Measurements reported in patent publication US20070219212A1, “Pyranouidole Derivatives and the Use Thereof for the Treatment of Hepatitis C Virus Infection or Disease” (priority 2004, published 2007).

System: Hepatitis C virus replicon (1b) constitutively expressed in Clone A cells (Huh-7 derived)
Experiment: Hepatitis C virus replicon inhibition in Clone A cells, NS5a ELISA
Format: cell-based
Conditions: 3 days, reference compound
Procedure: the compounds of the present invention to inhibit Hepatitis C virus replicon constitutively expressed in a human liver cell line was established by the following experimental procedure:
Clone A cells (licensed from Apath, LLC) are derived from Huh-7 cells (human hepatoma cell line) and constitutively express the HCV replication proteins with concomitant amplification the HCV replicon (1b) genome. Cells are maintained and passaged in DMEM/10% FCS/1 mg/ml G418 (Geneticin from Gibco #11811-023; other media components as described below in “elisa media”). Care should be taken to maintain cell monolayers at a subconfluent state by 1:3 or 1:4 passages every 3-4 days. The replicon is extremely sensitive to the cellular metabolism/proliferation state and replicon copy number will rapidly decline in confluent monolayers (resting cells). Under ideal conditions each cell has, on average, 1000 copies of the HCV replicon genome.
10 μl of compounds (in DMSO) are added to column 3 of the mother plate. 5 μl of DMSO are added to the remaining columns. Mother plates are set aside until ready for serial dilution to be performed.
Prepare cell plates (daughter plates) by adding 52 μl of Elisa media to each well.
In Mother plates, serially transfer 50 μl/well from column 3 through column 12.
Transfer 8 μl from mother plate to daughter plates (all 96 wells). […]
Read plates with optical density (O.D.) 450 filter. […]

## Interferon-a2: reference compound of the HCV replicon ELISA assay
  IC50: 4-30 U/ml
